Values quoted from earlier work, collected in patent US20130274692A1, “SUBCONJUCTIVAL IMPLANT FOR POSTERIOR SEGMENT DRUG DELIVERY” (priority 2010, published 2013).

Conditions: in water, 20 C, measured value of Molokhia et al, cited from earlier work

For bovine serum albumin [BSA], the “Diff Coeff” value is given as 6.1E−07 cm^2/s and the “Diff Coeff” value (listed as bovine serum albumin) is given as 6.1 e-7 cm^2/s.

Where two headings read alike, the source gives them in different places.
